# Tested on: Caco-2 cells
# Conditions: for Papp (B-A): Caco-2, 2 hours incubation
Structure (SMILES),Papp (B-A) [nm/s],"Efflux ratio (ratio of Papp (B-A) to Papp (A-B), Caco-2)"
"CC(C)(C)[C@H](c1cc(-c2cc(F)ccc2F)cn1Cc1ccccc1)N(CCCN)C(=O)CO [Example M9, N-(3-Aminopropyl)-N-{(1R)-1-[1-benzyl-4-(2,5-difluorophenyl)-1H-pyrrol-2-yl]-2,2-dimethylpropyl}-2-hydroxyacetamide]",213,–
"CC(C)(C)[C@H](c1cc(-c2cc(F)ccc2F)cn1Cc1ccccc1)N(CCCN)C(=O)CSC[C@H](N)C(=O)O.O=C(O)C(F)(F)F.O=C(O)C(F)(F)F [Example M11, S-{2-[(3-Aminopropyl){(1R)-1-[1-benzyl-4-(2,5-difluorophenyl)-1H-pyrrol-2-yl]-2,2-dimethylpropyl}amino]-2-oxoethyl}-L-cysteine/trifluoroacetic acid (1:2)]",24.3,27.7
"CC(C)(C)[C@H](c1cc(-c2cc(F)ccc2F)cn1Cc1ccccc1)N(CC[C@H](N)C(=O)NCCNC(=O)CNC(=O)C(CC(=O)O)SC[C@H](N)C(=O)O)C(=O)CO (stereo partly drawn) [Example M27, 4-[(2-{[2-({(2S)-2-Amino-4-[{(1R)-1-[1-benzyl-4-(2,5-difluorophenyl)-1H-pyrrol-2-yl]-2,2-dimethylpropyl}(glycoloyl)amino]butanoyl}amino)ethyl]amino}-2-oxoethyl)amino]-3-{[(2R)-2-amino-2-carboxyethyl]sulphanyl}-4-oxobutanoic acid/trifluoroacetic acid (1:1)]",13.2,–
